Screens: PubChem, several laboratories
NALP1 yeast inh: NALP1 inflammasome inhibitors in reconstituted yeast, colorimetric, S. cerevisiae, triplicate retest; S. cerevisiae NALP1/ASC/caspase-1 growth, X-gal OD620, 72 h; inhibition, % at 10 µM; 280,000 compounds, 0.61% hits; in the data active = inhibition mostly above about 24%, no sharp cut-off; inactive = mostly below about 32%
Yeast UUG start: modulators of start codon recognition fidelity in yeast; AID 602363; activity score, % at 18.7 µM; S. cerevisiae UUG-firefly luciferase reporter, luminescence/redox ratio; 0.13% of 350,000 active;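 active = replicate mean at a twofold rise or more, about +100% in these data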;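 note: firefly luciferase made from a UUG start codon reports start codon fidelity; reporter light over untreated wells divided by growth signal over untreated wells; some hits fall short of that in this replicate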
MC4R barr agon: MC4R agonists recruiting beta-arrestin, primary screen, cell-based, luminescence, agonist arm of biased-ligand search; Melanocortin receptor 4 (Homo sapiens), P32245; U2OS MC4R beta-arrestin complementation; percent of melanotan II response, DMSO zero; 360,000 compounds, 0.98% hits; activation, % at 8.9 µM;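 active = activation above a per-plate cutoff, the mean activation of sample wells on that plate plus 3 SD, cut at about 8% in these data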
HDAC3 inh: HDAC3 deacetylase inhibitors, primary screen, biochemical, fluorescence, cell-free homogeneous; Histone deacetylase 3 (Homo sapiens), O15379; recombinant HDAC3, fluorogenic peptide/trypsin coupled; inhibition, % at 8.3 µM; 320,000 compounds, 0.15% hits; in the data active = inhibition above about 26%, passing the limit was not always enough; inconclusive = no clear call, values can overlap the other calls
ALR inh: blocks human ALR sulfhydryl oxidase activity | inhibition, % (no concentration beside the values) | 3.8% of 290,000 active | purified ALR, DTT oxidation, H2O2 HRP-luminol luminescence | AID 485317 | P55789;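 active = mean and each replicate at 75% or more; inconclusive = only one of the two met; inactive = neither met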;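 also: stock transfer was 7.5 nL into about 7.5 µL; 0% = neutral wells and 100% = wells with inactivated enzyme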
MC4R antagonist: MC4R antagonists of cAMP signaling, primary screen, cell-based, TR-FRET, antagonist arm of biased-ligand search; MC4R-expressing cells, MTII-stimulated cAMP, LANCE TR-FRET; inhibition, % at 6.5 µM; 360,000 compounds, 0.48% hits;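 active = inhibition above its plate's cutoff, the mean of tested wells on that plate plus 3 SD, cut at about 29% in these data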
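Assay system: U2OS cells stably expressing human melanocortin 4 receptor (MC4R) / Dosing: 6.5 µM / Timing: compound 30 min, challenge 1 h, detection 1 h / Measured by: Eu-cAMP/anti-cAMP TR-FRET, emission 671 nm / Replicates: singlicate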
Of the large screens only hits and unclear results are named; the others gave an inactive call. Rows were chosen to be rich in hits. Some 4.2% of all compounds tested hit in one or more screens of this group.

By UniProt entry, the sequences of proteins in these tests, tags left out.
Melanocortin receptor 4 (Homo sapiens), P32245, UniProt P32245, whole entry, looked up: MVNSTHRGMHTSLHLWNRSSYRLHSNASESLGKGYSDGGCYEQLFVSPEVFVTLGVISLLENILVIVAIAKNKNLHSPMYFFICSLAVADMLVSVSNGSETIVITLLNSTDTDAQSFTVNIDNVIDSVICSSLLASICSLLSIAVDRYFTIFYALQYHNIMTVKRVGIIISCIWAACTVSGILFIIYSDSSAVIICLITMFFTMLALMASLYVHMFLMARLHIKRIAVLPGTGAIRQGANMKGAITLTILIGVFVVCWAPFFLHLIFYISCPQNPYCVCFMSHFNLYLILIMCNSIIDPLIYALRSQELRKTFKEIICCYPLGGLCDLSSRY

C[C@@H]1CN([C@@H](C)CO)S(=O)(=O)c2ccc(C3=CCCCC3)cc2O[C@@H]1CN(C)S(=O)(=O)c1ccc(F)cc1	none (no result: NALP1 yeast inh, MC4R barr agon, HDAC3 inh, ALR inh, MC4R antagonist)
C[C@H]1CN([C@@H](C)CO)C(=O)Cc2cc(NS(=O)(=O)c3cn(C)cn3)ccc2O[C@@H]1CN(C)Cc1ccc(C(=O)O)cc1	none (no result: NALP1 yeast inh, MC4R barr agon, HDAC3 inh, ALR inh, MC4R antagonist)
CCC(C)Nc1nc2c(c(=O)n(C)c(=O)n2C)n1Cc1ccc(F)cc1 (stereo not given)	ALR inh 90
C=CCNc1nc2c(c(=O)n(C)c(=O)n2C)n1Cc1ccc(F)cc1	none (no result: NALP1 yeast inh)
CCC(C)Nc1nc2c(c(=O)[nH]c(=O)n2C)n1CCCc1ccccc1 (stereo not given)	ALR inh 82
C=CCn1c(Br)nc2c1c(=O)[nH]c(=O)n2C	none
Cn1c(=O)[nH]c(=O)c2c1nc(Br)n2C/C=N/Nc1ccccc1	ALR inh 100
CNc1nc2c(c(=O)[nH]c(=O)n2C)n1CCCc1ccccc1	none
COc1ccc(OCC(=O)Nc2ccc3oc(-c4ccncc4)nc3c2)cc1	none
Cc1ccc(OCC(=O)Nc2ccc(O)c(-c3nc4ccccc4o3)c2)cc1	MC4R barr agon 8.6
O=C(C1CC1c1ccccc1)N1CCOCC1 (stereo not given)	ALR inh 98
O=C(O)C1C(c2ccccc2)C(C(=O)N2CCOCC2)C1c1ccccc1 (stereo not given)	none
COc1ccc(NC(=O)N[C@@H]2C=C[C@H](CC(=O)NC3CCC3)O[C@H]2CO)cc1	none (no result: NALP1 yeast inh, MC4R barr agon, HDAC3 inh, ALR inh, MC4R antagonist)
Cc1ccc(C)c(S(=O)(=O)N/N=C/c2ccc(N(C)C)cc2)c1	ALR inh 99 (no result: Yeast UUG start)
CC(=O)NCc1ccc(S(=O)(=O)N/N=C/c2ccc(N(C)C)cc2)cc1	ALR inh 98 (no result: Yeast UUG start)
O=C(Nc1ccc2c(c1)[C@@H]1C[C@H](CC(=O)N3CCCCC3)O[C@@H](CO)[C@@H]1O2)c1ccc2c(c1)OCO2	none (no result: NALP1 yeast inh, MC4R barr agon, HDAC3 inh, ALR inh, MC4R antagonist)
Cc1ccc(NCc2ccccc2O)cc1	ALR inh inconclusive
Cc1ccc(NCCNc2ccc(C)cc2)cc1	ALR inh 99
Cc1cccc(NCCNc2cccc(C)c2)c1	ALR inh 99
Cc1cccc(NCc2ccccc2O)c1	ALR inh 99
Cc1ccc(O)c(CNc2cnc3ccccc3c2)c1	ALR inh 98
COc1ccc(NCCNc2ccc(OC)cc2)cc1	ALR inh inconclusive
COc1ccc(S(=O)(=O)N(C)C[C@H]2Oc3c(NC(=O)NC(C)C)cccc3C(=O)N([C@H](C)CO)C[C@H]2C)cc1	none (no result: NALP1 yeast inh, MC4R barr agon, HDAC3 inh, ALR inh, MC4R antagonist)
C=CCOc1ccccc1CNc1ccccc1C	none (no result: Yeast UUG start)
Cc1ccccc1NCc1ccccc1O	ALR inh 100
CN(C)CCn1c(NCc2ccc3c(c2)OCO3)nc2ccccc21	none
CCCCn1c(NCc2ccc3c(c2)OCO3)nc2ccccc21	ALR inh 92
CCCn1c(NCc2ccc3c(c2)OCO3)nc2ccccc21	ALR inh 96
C[C@H]1CN([C@@H](C)CO)C(=O)c2cccc(NS(C)(=O)=O)c2O[C@H]1CN(C)C(=O)Nc1ccc(F)cc1	none (no result: NALP1 yeast inh, MC4R barr agon, HDAC3 inh, ALR inh, MC4R antagonist)
Cc1ccc(NC(=O)CN2CCN(C(=O)c3ccco3)CC2)cc1	none (no result: ALR inh)
Cc1[nH]c2ccccc2c1NC(=O)CN1CCN(C(=O)c2ccco2)CC1	NALP1 yeast inh 42
Cc1ccc(C(=O)N/C(=C/c2ccco2)C(=O)N2CCCCCC2)cc1	none
Cc1cccc(C(=O)N/C(=C\c2ccco2)C(=O)N2CCCC2)c1	ALR inh 95
C[C@@H]1CCCCO[C@@H](CN(C)Cc2ccc(C(=O)O)cc2)[C@H](C)CN([C@H](C)CO)C(=O)c2cc(NS(=O)(=O)c3cn(C)cn3)ccc2O1	none (no result: NALP1 yeast inh, MC4R barr agon, HDAC3 inh, ALR inh, MC4R antagonist)
CC(=O)Nc1ccc(S(=O)(=O)N2CCN=C2SCc2ccccc2C)cc1	ALR inh 98
CC(=O)Nc1ccc(S(=O)(=O)N2CCN=C2SCc2ccc([N+](=O)[O-])cc2)cc1	ALR inh 99
CS(=O)(=O)N1CCN=C1SCc1ccc(Br)cc1	none
